# Reference: US10183912B2, “HDMX inhibitors and their use for cancer treatment” (priority 2014, dated 2019)
# System: OCI cell line
smiles,measurement,value
[N-]=[N+]=Nc1c2ccccc2nc2cc([N+](=O)[O-])ccc12,IC50,9.5 µM
